# In US10111890B2, “9-aminomethyl minocycline compounds and uses thereof” (Paratek Pharmaceuticals, Inc., priority 2016, dated 2018):
# Read-outs that look alike come from different tables or passages of the source.
# Assay: Phase 1 food-effect crossover study: plasma PK after single 300 mg oral dose
# Type: in vivo
# Conditions: human, read-out: T1/2, Mean (Coefficient of Variation) (converted)
# Experimental: These meals were to be consumed within 20 minutes. Dose administration for Treatments B, C, and D was based off of the end time of the meal. […] For statistical analysis, individual PK parameters for omadacycline were summarized with descriptive statistics. Geometric means were determined for AUC and Cmax. PK parameters were evaluated using non-compartmental analysis using Phoenix® WinNonlin® (Pharsight Corp, St. Louis, Mo.), Version 6.2.1. Confidence intervals (CI) for test treatments (fed states: Treatments B, C, and D) compared with the reference treatment (fasted state: Treatment A) were constructed for AUC0-24, AUC0-t, AUC0-inf, and Cmax.
smiles,measurement,setting,value
"CN(C)c1cc(CNCC(C)(C)C)c(O)c2c1C[C@H]1C[C@H]3[C@H](N(C)C)C(O)=C(C(N)=O)C(=O)[C@@]3(O)C(O)=C1C2=O [Omadacycline, 9-[(2,2-dimethyl-propylamino)-methyl]-minocycline]",half-life,Treatment A: fasted overnight,828 min
same,half-life,Treatment B: high-fat nondairy meal 4 h before dosing,816 min
same,half-life,Treatment C: high-fat nondairy meal 2 h before dosing,816 min
same,half-life,Treatment D: high-fat meal incl. dairy 2 h before dosing,810 min
